Holding throughout (assay): co-sedimentation
In assay [1] the target is microtubules (tubulin polymer, αβ-tubulin).
For assay [2] the target is unchanged. This is another data set of the same source.
The target is the same in assay [3]. This is another data set of the same source.
Assay [4] has the same target. The source holds these as a separate data set.

Amino acid sequences for entries named in this document (tags omitted). A change or cut given only in a name is not applied to a line headed by its entry.
UniProt P17119: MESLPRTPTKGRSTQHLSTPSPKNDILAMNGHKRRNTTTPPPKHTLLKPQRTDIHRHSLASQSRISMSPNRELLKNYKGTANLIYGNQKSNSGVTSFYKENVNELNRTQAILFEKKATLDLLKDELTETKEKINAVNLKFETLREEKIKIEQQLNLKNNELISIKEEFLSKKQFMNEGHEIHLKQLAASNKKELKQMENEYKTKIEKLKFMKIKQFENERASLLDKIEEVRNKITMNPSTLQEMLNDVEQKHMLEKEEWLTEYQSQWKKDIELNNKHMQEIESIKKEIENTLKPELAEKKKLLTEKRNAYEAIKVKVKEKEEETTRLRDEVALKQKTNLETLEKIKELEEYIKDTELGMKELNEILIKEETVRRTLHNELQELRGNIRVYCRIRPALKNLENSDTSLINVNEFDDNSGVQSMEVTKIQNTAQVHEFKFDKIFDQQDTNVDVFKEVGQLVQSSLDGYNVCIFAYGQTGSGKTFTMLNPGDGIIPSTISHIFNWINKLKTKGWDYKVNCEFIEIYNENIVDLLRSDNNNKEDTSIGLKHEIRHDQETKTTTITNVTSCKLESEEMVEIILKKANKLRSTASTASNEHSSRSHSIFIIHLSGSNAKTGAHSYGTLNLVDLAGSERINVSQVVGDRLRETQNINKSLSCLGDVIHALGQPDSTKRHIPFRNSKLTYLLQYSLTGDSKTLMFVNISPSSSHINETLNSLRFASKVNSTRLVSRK

Like-named read-outs stand apart in the source and are kept apart here.

As for “WT GCN4-Kar3Vik1 (from UniProt P17119 353-729; Q12045 341-647) (complex)”, the stoichiometry N (αβ-tubulin per Kar3Vik1) is under 1 in assay [1], 1 in assay [2], 2 in assay [3] and 2 in assay [4]. Moreover, the Kd in assay [2] stood at 40 nM; in assay [3] it was 370 nM; in assay [4] it was 360 nM.

Values taken from paper PMC3384419.
